Data from PubChem BioAssay (NCI).
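How tested: cells in 96-well plates exposed to compound for 48 hours at five concentrations. GI50: concentration for 50% inhibition of growth. The concentration for full growth arrest is given as TGI.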

Legend:
Assay in all cases: NCI-60 cell line screen, 48 h
[1] = test system: T-47D breast
[2] = test system: EKVX NSCLC
[3] = test system: SF-268 CNS
[4] = test system: KM12 colon
[5] = test system: UACC-62 melanoma
[6] = test system: COLO 205 colon
[7] = test system: 786-0 renal
[8] = test system: SR leukemia
[9] = test system: MDA-MB-435
[10] = test system: SK-MEL-5 melanoma
[11] = test system: SK-MEL-28 melanoma
[12] = test system: U251 CNS
[13] = test system: DU-145 prostate
[14] = test system: CCRF-CEM leukemia
[15] = test system: SK-OV-3 ovarian
[16] = test system: NCI-H460 lung
[17] = test system: NCI/ADR-RES ovarian
[18] = test system: NCI-H322M lung
[19] = test system: NCI-H226 lung
[20] = test system: MALME-3M melanoma
[21] = test system: MCF7 breast
[22] = test system: TK-10 renal
[23] = test system: MDA-MB-231 breast
[24] = test system: A498 renal
[25] = test system: HCT-15 colon
[26] = test system: SN12C renal
[27] = test system: SF-295 CNS
[28] = test system: MOLT-4 leukemia
[29] = test system: HCT-116 colon
[30] = test system: A549 NSCLC
[31] = test system: UACC-257 melanoma
[32] = test system: PC-3 prostate
[33] = test system: HCC-2998 colon
[34] = test system: OVCAR-8 ovarian
[35] = test system: SK-MEL-2 melanoma
[36] = test system: NCI-H522 lung
[37] = test system: HOP-62 NSCLC
[38] = test system: K-562 leukemia
[39] = test system: SNB-75 CNS
[40] = test system: RPMI-8226 leukemia
[41] = test system: SNB-19 CNS
[42] = test system: NCI-H23 lung
[43] = test system: CAKI-1 renal
[44] = test system: SW-620 colon
[45] = test system: UO-31 renal
[46] = test system: OVCAR-5 ovarian
[47] = test system: IGROV1 ovarian
[48] = test system: OVCAR-4 ovarian
[49] = test system: LOX IMVI melanoma
[50] = test system: BT-549 breast
[51] = test system: OVCAR-3 ovarian
[52] = test system: RXF 393 renal
[53] = test system: HT29 colon
[54] = test system: M14 melanoma
[55] = test system: ACHN renal
[56] = test system: SF-539 CNS
[57] = test system: HL-60(TB) leukemia
[58] = test system: HS 578T breast
[59] = test system: HOP-92 NSCLC

## O=C(Cl)c1c([N+](=O)[O-])cc([N+](=O)[O-])cc1[N+](=O)[O-]
[1]
  GI50: 2.11 µM
  TGI: 4.55 µM
[2]
  GI50: 6.73 µM
  TGI: 19.3 µM
[3]
  GI50: 4.68 µM
  TGI: 17.1 µM
[4]
  GI50: 5 µM
  TGI: 19.7 µM
[5]
  GI50: 4.27 µM
  TGI: 16.2 µM
[6]
  GI50: 1.89 µM
  TGI: 3.51 µM
[7]
  GI50: 14.1 µM
  TGI: 27.1 µM
[8]
  GI50: 2.14 µM
  TGI: > 100 µM
[9]
  GI50: 6.38 µM
  TGI: 19.2 µM
[10]
  GI50: 18.1 µM
  TGI: 32.6 µM
[11]
  GI50: 2.8 µM
  TGI: 7.69 µM
[12]
  GI50: 9.56 µM
  TGI: 22 µM
[13]
  GI50: 1.67 µM
  TGI: 3.05 µM
[14]
  GI50: 3.33 µM
  TGI: 17 µM
[15]
  GI50: 15.9 µM
  TGI: 29.3 µM
[16]
  GI50: 11.5 µM
  TGI: 28.5 µM
[17]
  GI50: 13.7 µM
  TGI: 52.6 µM
[18]
  GI50: 15.4 µM
  TGI: 29.3 µM
[19]
  GI50: 15.2 µM
  TGI: 28.9 µM
[20]
  GI50: 5.64 µM
  TGI: 18.7 µM
[21]
  GI50: 1.67 µM
  TGI: 3.82 µM
[22]
  GI50: 16.1 µM
  TGI: 29.6 µM
[23]
  GI50: 11.2 µM
  TGI: 25.3 µM
[24]
  GI50: 16.1 µM
  TGI: 29.6 µM
[25]
  GI50: 1.68 µM
  TGI: 3.56 µM
[26]
  GI50: 10.2 µM
  TGI: 23.7 µM
[27]
  GI50: 16.1 µM
  TGI: 29.5 µM
[28]
  GI50: 4.84 µM
  TGI: 37.4 µM
[29]
  GI50: 3.36 µM
  TGI: 11.3 µM
[30]
  GI50: 16.8 µM
  TGI: 32.2 µM
[31]
  GI50: 1.67 µM
  TGI: 3.17 µM
[32]
  GI50: 6.16 µM
  TGI: 20.6 µM
[33]
  GI50: 1.88 µM
  TGI: 3.45 µM
[34]
  GI50: 10.5 µM
  TGI: 32 µM
[35]
  GI50: 11.7 µM
  TGI: 26.7 µM
[36]
  GI50: 1.84 µM
  TGI: 3.64 µM
[37]
  GI50: 2.84 µM
  TGI: 7.67 µM
[38]
  GI50: 3.22 µM
  TGI: > 100 µM
[39]
  GI50: 2.24 µM
  TGI: 10.3 µM
[40]
  GI50: 2.58 µM
  TGI: 7.17 µM
[41]
  GI50: 4.8 µM
  TGI: 17.7 µM
[42]
  GI50: 12 µM
  TGI: 31.7 µM
[43]
  GI50: 1.8 µM
  TGI: 3.34 µM
[44]
  GI50: 1.93 µM
  TGI: 4.01 µM
[45]
  GI50: 1.79 µM
  TGI: 3.36 µM
[46]
  GI50: 17.1 µM
  TGI: 40.9 µM
[47]
  GI50: 10.2 µM
  TGI: 23.4 µM
[48]
  GI50: 1.89 µM
  TGI: 3.87 µM
[49]
  GI50: 2.95 µM
  TGI: 11.4 µM
[50]
  GI50: 13.6 µM
  TGI: 26.5 µM
[51]
  GI50: 1.79 µM
  TGI: 3.22 µM
[52]
  GI50: 4.37 µM
  TGI: 14.2 µM
[53]
  GI50: 2.4 µM
  TGI: 5.33 µM
[54]
  GI50: 5.5 µM
  TGI: 18.3 µM
[55]
  GI50: 1.88 µM
  TGI: 3.43 µM
[56]
  GI50: 6.81 µM
  TGI: 20 µM
[57]
  GI50: 2.34 µM
  TGI: 6.01 µM
[58]
  GI50: 2.03 µM
  TGI: 8.19 µM
[59]
  GI50: 7.68 µM
  TGI: 20 µM
